Measurements: patent US20250339531A1, “DUX4 POLYPEPTIDES AND NUCLEIC ACIDS FOR TREATING INFLAMMATORY AND AUTOIMMUNE CONDITIONS” (Fred Hutchinson Cancer Center, priority 2021, published 2025)

Tested on: proteins that co-immunoprecipitated with DUX4-CTD constructs expressed in MB135 myoblasts
Experiment: LC-MS of proteins co-immunoprecipitated with DUX4-CTD (Table 1) and western validation
Format: binding, human
Set-up: key to 3. + IFNg + Dox longCTD / 3. + Dox longCTD / 4. mL1dL2 + Dox + IFNG: peptide-spectrum matches (PSMs) per protein
Conditions: for 3. + IFNg + Dox longCTD: bait longCTD, experiment 3, IFNg + Dox; for SUM of PSMS: sum over all samples
From the text: As an unbiased method to identify proteins that interact with the C-terminal region of DUX4, liquid chromatography mass spectroscopy (LC-MS) was used to identify proteins that co-immunoprecipitated with DUX4-CTD constructs expressed in MB135 myoblasts. In the first experiment, MB135iDUX4-CTD cells were used, either untreated, treated with doxycycline alone, or with both doxycycline and IFNG. In the second experiment, MB135iDUX4-CTD and MB135iDUX4mL1dL2 cells were used, both treated with doxycycline and IFNG, compared to these two cell lines untreated and combined as a control. Proteins with a minimum of 2 peptide spectrum matches (PSMs) in at least one sample that were identified in both experiments were assigned to one of ten categories (see Methods) to separate candidate interactors from other categories that might be co-purified because of obligate interactions (e.g., proteasome or ribosome) or might be less likely to be physiologically relevant (e.g., cytoskeletal proteins). Candidate interactors were then ranked based on the total PSMs for that protein across all samples.
Centrifugation at 2500 rcf at 4° C. for 5 min pelleted the nuclei, supernatant was discarded, and nuclei resuspended in 1 mL IP buffer pH 7.4 (25 mM Tris-HCl pH 7.5, 175 mM NaCl, 1 mM EDTA, 0.2% NP-40, 5% glycerol) and incubated for 1 hour at 4° C. with rotation then spun at 21000 rcf for 10 minutes at 4° C. to pellet insoluble debris. Protein concentration was determined using the Pierce BCA Protein Assay Kit (ThermoFisher, 23225). An equivalent amount of protein per sample was pre-cleared with Dynabeads Protein G (Invitrogen) bound to mouse IgG (Abcam #131368) for 1 hour at 4° C. with rotation. FLAG-tagged constructs were then immunoprecipitated with Dynabeads Protein G beads coupled to mouse anti-FLAG M2 mAb (Sigma F3165) for 3 hours at 4° C. with rotation. Beads were washed 3× with 1 mL IP buffer and eluted by adding 2× NuPage LDS Sample Buffer (Thermo Fisher, diluted from 4× with PBS) to the beads and heating for 10 minutes at 70° C.
For LC-MS, anti-FLAG immunoprecipitation was performed with beads cross-linked to the anti-FLAG antibody and the proteins competitively eluted with FLAG peptide. Eluted protein samples were electrophoresed into a NuPage 4-12% Bis-Tris gel, excised, and processed by the Fred Hutchinson Cancer Research Center Proteomics Core. Samples were reduced, alkylated, digested with trypsin, desalted, and run on the Orbitrap Eclipse Tribid Mass Spectrometer (Thermo Fisher). Proteomics data were analyzed using Proteome Discoverer 2.4 against a Uniprot human database that included common contaminants using Sequest HT and Percolator for scoring. […] Proteins that were identified in at least one sample from both independent experiments with at least 2 PSMs in one sample were assigned to one of ten categories: 1, candidates; 2, cytoskeletal associated; 3, cytoskeletal; 4, ribosome/translation associated; 5, proteasome associated; 6, membrane or extracellular; ER, golgi, or vesicle associated; 8, lipid metabolism; 9, chaperones; 10, nuclear import or nuclear membrane associated. The proteins in category 1 were further investigated for interactions with DUX4.

Row | Substance | 3. + IFNg + Dox longCTD | SUM of PSMS | 4. mL1dL2 + Dox + IFNG (LC-MS value per protein co-immunoprecipitated with DUX4-CTD construct mL1dL2 in MB135 myoblasts, + Dox + IFNG, kind of count not given)
1 | Q93009 | 6 | 15 | –
2 | P13010 | 5 | 6 | –
3 | USP7 | – | – | 9
